Key:
Type in all cases: biochemical
LRRK2 = LRRK2 (Homo sapiens, UniProt Q5S007); experiment: LRRK2 WT assay (Assay B, radiometric 33P-ATP filter binding); conditions: Assay B (values marked *)
Experimental: LRRK2(human) is incubated with 50 mM HEPES pH 8.0, 0.2 mM EDTA, 0.01% Brij-35, 1% (w/v) BSA, 5 mM DTT, 250 Mm […], 10 mM Magnesium acetate and [[…]]-ATP (specific activity and concentration as required).
The reaction is initiated by the addition of the Mg/ATP mix.

The chains behind the UniProt entries cited, without tags or fusion partners.
UniProt Q5S007, whole entry G2019S: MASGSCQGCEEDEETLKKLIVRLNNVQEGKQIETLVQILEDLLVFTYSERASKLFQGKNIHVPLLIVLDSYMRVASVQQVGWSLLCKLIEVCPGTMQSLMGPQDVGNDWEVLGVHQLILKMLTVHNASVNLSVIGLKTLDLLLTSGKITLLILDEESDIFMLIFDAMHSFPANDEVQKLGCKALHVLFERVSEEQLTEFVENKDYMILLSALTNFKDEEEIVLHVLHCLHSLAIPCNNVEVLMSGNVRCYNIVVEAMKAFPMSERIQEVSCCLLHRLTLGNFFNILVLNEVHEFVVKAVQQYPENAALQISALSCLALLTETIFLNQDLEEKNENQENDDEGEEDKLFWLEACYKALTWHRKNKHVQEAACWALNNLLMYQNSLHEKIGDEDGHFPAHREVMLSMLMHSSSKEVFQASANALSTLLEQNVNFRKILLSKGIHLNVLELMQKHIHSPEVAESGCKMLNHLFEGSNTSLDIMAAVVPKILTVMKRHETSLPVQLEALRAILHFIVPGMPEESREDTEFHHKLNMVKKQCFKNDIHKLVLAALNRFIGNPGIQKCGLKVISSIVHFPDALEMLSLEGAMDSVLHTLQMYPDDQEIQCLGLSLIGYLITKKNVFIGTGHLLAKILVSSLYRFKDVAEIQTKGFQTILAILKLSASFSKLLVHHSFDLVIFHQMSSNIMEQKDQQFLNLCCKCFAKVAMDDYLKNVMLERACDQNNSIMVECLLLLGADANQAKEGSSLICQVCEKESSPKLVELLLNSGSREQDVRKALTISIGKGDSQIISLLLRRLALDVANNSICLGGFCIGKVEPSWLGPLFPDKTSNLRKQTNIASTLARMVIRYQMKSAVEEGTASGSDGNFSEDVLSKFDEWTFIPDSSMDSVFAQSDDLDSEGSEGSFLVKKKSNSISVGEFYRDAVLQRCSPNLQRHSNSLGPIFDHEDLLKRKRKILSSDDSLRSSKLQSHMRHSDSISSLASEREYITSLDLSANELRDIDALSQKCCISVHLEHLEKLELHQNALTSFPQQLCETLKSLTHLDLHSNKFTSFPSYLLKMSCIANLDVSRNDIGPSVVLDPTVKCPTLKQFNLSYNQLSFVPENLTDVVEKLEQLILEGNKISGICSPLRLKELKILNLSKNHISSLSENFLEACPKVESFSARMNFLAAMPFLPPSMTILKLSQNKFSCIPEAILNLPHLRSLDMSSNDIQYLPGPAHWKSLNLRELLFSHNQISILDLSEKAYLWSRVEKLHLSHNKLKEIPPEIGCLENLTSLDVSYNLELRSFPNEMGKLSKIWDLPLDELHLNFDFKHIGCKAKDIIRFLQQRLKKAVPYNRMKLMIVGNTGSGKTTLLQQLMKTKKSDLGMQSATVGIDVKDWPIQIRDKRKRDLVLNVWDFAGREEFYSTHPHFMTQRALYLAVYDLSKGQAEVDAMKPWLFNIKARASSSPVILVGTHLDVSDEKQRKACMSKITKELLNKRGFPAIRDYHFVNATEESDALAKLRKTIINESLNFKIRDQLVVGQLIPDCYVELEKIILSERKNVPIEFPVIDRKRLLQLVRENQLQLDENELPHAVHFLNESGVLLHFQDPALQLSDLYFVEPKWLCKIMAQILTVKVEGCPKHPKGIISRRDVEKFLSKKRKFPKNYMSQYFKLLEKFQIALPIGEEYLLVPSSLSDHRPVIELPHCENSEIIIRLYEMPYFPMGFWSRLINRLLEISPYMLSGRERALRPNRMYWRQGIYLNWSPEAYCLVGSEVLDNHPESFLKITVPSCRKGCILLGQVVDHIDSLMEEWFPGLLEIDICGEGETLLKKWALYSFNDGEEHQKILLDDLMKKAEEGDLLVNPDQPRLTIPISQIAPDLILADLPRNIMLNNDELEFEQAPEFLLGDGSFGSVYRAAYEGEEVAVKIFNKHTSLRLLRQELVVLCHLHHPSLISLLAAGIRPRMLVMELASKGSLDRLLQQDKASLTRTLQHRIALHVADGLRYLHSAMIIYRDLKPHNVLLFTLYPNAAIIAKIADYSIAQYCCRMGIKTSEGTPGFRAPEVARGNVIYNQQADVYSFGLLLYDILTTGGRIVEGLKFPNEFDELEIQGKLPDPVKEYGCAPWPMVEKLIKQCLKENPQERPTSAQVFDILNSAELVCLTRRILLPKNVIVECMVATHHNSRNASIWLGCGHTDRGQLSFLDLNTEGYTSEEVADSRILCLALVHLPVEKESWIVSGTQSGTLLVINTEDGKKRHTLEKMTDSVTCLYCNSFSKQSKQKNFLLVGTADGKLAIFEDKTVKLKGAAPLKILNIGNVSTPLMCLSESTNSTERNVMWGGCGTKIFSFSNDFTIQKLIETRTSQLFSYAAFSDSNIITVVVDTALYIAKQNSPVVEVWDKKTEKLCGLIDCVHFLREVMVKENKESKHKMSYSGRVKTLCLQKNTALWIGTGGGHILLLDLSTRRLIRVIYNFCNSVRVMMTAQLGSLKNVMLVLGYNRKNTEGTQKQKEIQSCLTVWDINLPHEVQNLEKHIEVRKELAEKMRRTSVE

full-length LRRK2 G2019S = target: T1, full-length LRRK2 G2019S (Homo sapiens, UniProt Q5S007, G2019S); experiment: LRRK2-G2019S kinase activity assay (Lanthascreen TR-FRET); conditions: 1.1 mM ATP
T1 construct: DYKDDDDK-tagged full-length LRRK2 G2019S protein; DYKDDDDK (FLAG)
Experimental: (§1) The measurements of the activities were made using a LRRK2-G2019S(human) Kinase activity assay as described hereunder. The potency of compounds was evaluated in vitro using the Lanthascreen® technology (ThermoFisher Scientific).
(§2) The biological assay requires the DYKDDDDK-tagged full-length LRRK2 G2019S protein, the fluorescent peptide substrate named LRRKtide or ERM (RLGRDKYKTLRQIRQ supplied by PolyPeptide Group), the ATP substrate, and different concentrations of test compounds. In a typical experiment, the reaction assay buffer contains 50 mM Tris pH8.2, 1 mM EGTA, 2.5 mM MgCl2, 0.05% Triton X100, 0.15% BSA and 1 mM DTT. The detection of the assay is performed using 1 nM Terbium labeled anti-phospho-LRRKtide (ThermoFisher Scientific) diluted in a TR-FRET buffer (ThermoFisher Scientific).
The experimental procedure was performed with Greiner small volume® 384-well. […]
(§3) The kinase reaction was initiated by addition of the ATP/LRRKtide substrate mix diluted in the reaction assay buffer. […] Plates are incubated for at least 30 minutes at room temperature and read on an Envision™ multimode plate reader (PerkinElmer) with LanthaScreen™. The TR-FRET 520:495 nm emission ratio was calculated and used to determine the IC50 value from a dose response curve fit to the 4-parameter logistic equation. […]

[1] = target: T2, full-length LRRK2 wild type (Homo sapiens, UniProt Q5S007); experiment: LRRK2 WT assay (Assay A, Lanthascreen TR-FRET, 500 uM ATP); conditions: Assay A (values without *)
T2 construct: DYDDDDK tagged full-length LRRK2 wild type is used
Experimental: as §1
as §2, with “The detection of the assay is performed using 1 nM Terbium labeled anti-phospho-LRRKtide (ThermoFisher Scientific) diluted in a TR-FRET buffer (ThermoFisher Scientific).” left out
as §3
The kinase activity of LRRK2(human) WT was evaluated according to same method described in LRRK2-G2019 kinase activity assay as described above, except DYDDDDK tagged full-length LRRK2 wild type is used instead of DYKDDDDK-tagged full-length LRRK2 G2019S, and 500 uM ATP is used in WT assay instead of 1.1 mM ATP.

| SMILES | IC50 (LRRK2) [nM] | IC50 (full-length LRRK2 G2019S) [nM] | IC50 [1] [nM] |
| --- | --- | --- | --- |
| Cn1cc(Nc2ncc3cc(C#N)n(C4CCOCC4)c3n2)c(OC2COC2)n1 [Example 80, 2-((1-Methyl-3-(oxetan-3-yloxy)-1 H-pyrazol-4-yl)amino)-7-(tetrahydro-2H-pyran-4-yl)-7H-pyrrolo[2,3-d]pyrimidine-6-carbonitrile] | 20 | – | – |
| [2H]C([2H])([2H])n1cc(Nc2ncc3cc(C#N)n(C4CCOCC4)c3n2)c(OC2COC2)n1 [Example 123, 2-((1-(Methyl-d3)-3-(oxetan-3-yloxy)-1 H-pyrazol-4-yl)amino)-7-(tetrahydro-2H-pyran-4-yl)-7H-pyrrolo[2,3-d]pyrimidine-6-carbonitrile] | – | 187 | 125 |
